Measurements as given in patent US20070154464A1, “Methods for screening for agents capable of modulating t lymphocyte function in response to a herpes simplex virus-infected cell” (priority 2003, published 2007).

Test system: CD8+ CTL clone SKH-13
Format: cell-based, human
Settings: 20 units/ml

With “IL-2: human recombinant interleukin (IL)-2 (Chiron)” the “Lytic ability of CTL added to mock-infected fibroblasts” value (up to 48 h) was “maintained the lytic ability” and the “Recovery of killing function of CTL added to HSV-infected fibroblasts” value (E:T 3) was “did not recover killing function”.
